Earlier results in patent US7820706B2, “Multiple dose aromatase inhibitor for treating infertility” (Ares Trading S.A., priority 2001, dated 2010).

Settings: oral compared with same dose intravenously; cited from earlier work

## N#Cc1ccc(C(c2ccc(C#N)cc2)n2cncn2)cc1 [letrozole]
  absolute systemic bioavailability: 100%
